Test results as given in patent US20090325959A1 (priority 2008, published 2009).
Read-outs that look alike come from different tables or passages of the source.

By UniProt entry, the sequences of proteins in these tests, tags left out. Residues count along the entry.
UniProt Q13464, 17-535 limits assumed: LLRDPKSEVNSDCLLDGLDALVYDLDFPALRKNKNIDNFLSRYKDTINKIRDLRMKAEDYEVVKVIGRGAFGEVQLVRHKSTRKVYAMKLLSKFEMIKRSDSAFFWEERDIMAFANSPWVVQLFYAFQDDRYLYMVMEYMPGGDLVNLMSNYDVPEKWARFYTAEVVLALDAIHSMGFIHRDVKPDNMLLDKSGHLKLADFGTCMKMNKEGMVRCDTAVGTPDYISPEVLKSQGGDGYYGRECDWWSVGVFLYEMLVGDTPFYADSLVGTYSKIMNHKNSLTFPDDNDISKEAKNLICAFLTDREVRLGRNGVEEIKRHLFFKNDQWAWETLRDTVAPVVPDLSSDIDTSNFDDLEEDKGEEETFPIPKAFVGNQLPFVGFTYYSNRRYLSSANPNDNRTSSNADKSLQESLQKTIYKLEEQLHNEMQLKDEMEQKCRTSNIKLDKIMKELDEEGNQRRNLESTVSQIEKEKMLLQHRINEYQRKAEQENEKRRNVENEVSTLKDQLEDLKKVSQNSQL
UniProt O75116, 11-552 limits assumed: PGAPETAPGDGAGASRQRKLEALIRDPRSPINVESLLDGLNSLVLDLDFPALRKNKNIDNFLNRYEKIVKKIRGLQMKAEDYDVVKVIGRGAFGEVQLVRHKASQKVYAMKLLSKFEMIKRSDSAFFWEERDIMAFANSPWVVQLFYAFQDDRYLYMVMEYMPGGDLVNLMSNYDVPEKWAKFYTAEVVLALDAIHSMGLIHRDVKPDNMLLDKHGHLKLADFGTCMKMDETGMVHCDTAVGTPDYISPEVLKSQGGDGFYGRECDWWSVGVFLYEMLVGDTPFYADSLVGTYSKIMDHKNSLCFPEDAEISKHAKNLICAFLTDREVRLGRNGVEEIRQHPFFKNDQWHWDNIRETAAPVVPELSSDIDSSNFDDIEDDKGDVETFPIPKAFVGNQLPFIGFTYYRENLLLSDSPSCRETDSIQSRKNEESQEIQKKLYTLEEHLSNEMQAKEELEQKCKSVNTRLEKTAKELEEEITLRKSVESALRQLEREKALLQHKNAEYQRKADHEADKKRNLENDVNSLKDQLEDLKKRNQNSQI

Key:
[1] = molecular target: T1, ROCK1 (Homo sapiens, UniProt Q13464); assay: Rho kinase inhibition assay (IMAP fluorescence polarization), ROCK1; format: biochemical; conditions: Avg, 10 μM ATP;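 further: kinase reaction run 60 min at room temperature, then phosphorylated substrate captured on IMAP beads for 30 min, with fluorescence polarization read in mP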
T1 construct: purchased Upstate/Chemicon 14-601

[2] = molecular target: T2, ROCK2 (Homo sapiens, UniProt O75116); assay: Rho kinase inhibition assay (IMAP fluorescence polarization), ROCK2; format: biochemical;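 further: kinase reaction started with 10 µM ATP and run 60 min at room temperature, then phosphorylated substrate captured on IMAP beads for 30 min and fluorescence polarization read in mP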
T2 construct: purchased Upstate/Chemicon 14-451

[3] = 10 μM ATP, read-out: ROCK2 Ki, Avg

## NCc1ccc(CN2CCC[C@@H](Nc3ccc4[nH]ncc4c3)C2)cc1 [Compound 1.188, (R)-N-(1-(4-(aminomethyl)benzyl)piperidin-3-yl)-1H-indazol-5-amine]
[1]
  Ki: 3470 nM

## Clc1ccc(CN2CC[C@@H](Nc3ccc4[nH]ncc4c3)C2)cc1 [Compound 1.241, (R)-N-(1-(4-chlorobenzyl)pyrrolidin-3-yl)-1H-indazol-5-amine]
[2]; [3]
  Ki: 21 nM

## CN(C)S(=O)(=O)Nc1cccc(CN2CCC[C@H](Nc3ccc4[nH]ncc4c3)C2)c1 [Compound 1.261]
[2]; [3]
  Ki: 14.8 nM
[2]; average Ki, read-out: ROCK2 Ki
  Ki: 14.8 nM

## Cc1c(CN2CCC[C@H](Nc3ccc4[nH]ncc4c3)C2)cccc1NS(=O)(=O)N(C)C [Compound 1.275]
[2]; [3]
  Ki: 14.1 nM
[2]; average Ki, read-out: ROCK2 Ki
  Ki: 14.1 nM

## Cc1ccc(CN2CC[C@@H](Nc3cccc4cnccc34)C2)cc1NS(=O)(=O)N(C)C [Compound 2.077]
[2]; [3]
  Ki: 5 nM
[2]; average Ki, read-out: ROCK2 Ki
  Ki: 5 nM

## Cc1c(CN2CC[C@@H](Nc3cccc4cnccc34)C2)cccc1NS(=O)(=O)N(C)C [Compound 2.079]
[2]; [3]
  Ki: 2.3 nM
[2]; average Ki, read-out: ROCK2 Ki
  Ki: 2.3 nM

## COc1c(CN2CC[C@@H](Nc3cccc4cnccc34)C2)cccc1NS(=O)(=O)N(C)C [Compound 2.097]
[2]; [3]
  Ki: 2.8 nM
[2]; average Ki, read-out: ROCK2 Ki
  Ki: 2.8 nM
